The text below walks through data of US20110183363A1 (Genentech, published 2011).

Assay [1] deals with T1, E25-AAA mutant, full length.
T1 construct: E25 with three substitutions in light chain CDR1; also called mutant E25; biotin-labeled E25-AAA Mutant
The experiment in a line: semi-homogeneous ELISA (FIG. 10), streptavidin plate Pierce 15125. A general note: An ELISA detects its analyte on a solid surface through an enzyme-linked reagent.

For assay [2] the target is unchanged. Briefly: semi-homogeneous ELISA (FIG. 10), streptavidin plate Pierce 15500.
For assay [3] the target is unchanged. The experiment in a line: semi-homogeneous ELISA (FIG. 10): positive control in human serum pool preincubated with 1 µg/mL biotin-E25-AAA, streptavidin plate (Pierce 15125), DIG-rhuFcεR1-IgG, HRP-anti-DIG.

B1: chimeric E25-specific IgE positive control antibody (antibody)
chain 1: QVQLQQSGAELMKPGASVKISCKATGYTFSSHWIEWVKQRSGHGLEWIGEILPGSGSINYNEKFKGKATFTADTSSNTAYMQLSSLASEDSAVYYCGREGADYGYDVAMDYWGQGASVTVSSASTQSPSVFPLTRCCKNIPSNATSVTLGCLATGYFPEPVMVTWDTGSLNGTTMTLPATTLTLSGHYATISLLTVSGAWAKQMFTCRVAHTPSSTDWVDNKTFSVCSRDFTPPTVKILQSSCDGGGHFPPTIQLLCLVSGYTPGTINITWLEDGQVMDVDLSTASTTQEGELASTQSELTLSQKHWLSDRTYTCQVTYQGHTFEDSTKKCADSNPRGVSAYLSRPSPFDLFIRKSPTITCLVVDLAPSKGTVNLTWSRASGKPVNHSTRKEEKQRNGTLTVTSTLPVGTRDWIEGETYQCRVTHPHLPRALMRSTTKTSGPRAAPEVYAFATPEWPGSRDKRTLACLIQNFMPEDISVQWLHNEVQLPDARHSTTQPRKTKGSGFFVFSRLEVTRAEWEQKDEFICRAVHEAASPSQTVQRAVSVNPGK
chain 2: QIVITQSPAIMSASPGEKVTITCSATSSVNYMHWFQQKPGTSPKLWIYGTSHLASGVPARFSGSGSGTSYSLTISRMEAEDAATYYCQQRSRYPFTFGSGTKLEIKR
Take B1: in assay [1], the “Signal/Noise Ratio at 0.1 IU/mL” value is 2.1 ratio, the “Signal/Noise Ratio at 0.3 IU/mL” value came out at 4.3 ratio, the “Signal/Noise Ratio at 1 IU/mL” value was determined as 11.2 ratio and the “Signal/Noise Ratio at 3 IU/mL” value amounted to 32.4 ratio. Moreover, in assay [1], the “Signal/Noise Ratio at 10 IU/mL” value is 80.3 ratio and the “Signal/Noise Ratio at 30 IU/mL” value turned out to be 92.6 ratio. Besides, in assay [2], the “Signal/Noise Ratio at 0.1 IU/mL” value stood at 1.5 ratio, the “Signal/Noise Ratio at 0.2 IU/mL” value was 2.2 ratio, the “Signal/Noise Ratio at 0.4 IU/mL” value was found to be 3.3 ratio and the “Signal/Noise Ratio at 0.8 IU/mL” value was found to be 5.7 ratio. Further, in assay [2], the “Signal/Noise Ratio at 1.6 IU/mL” value was found to be 11.4 ratio, the “Signal/Noise Ratio at 3.2 IU/mL” value amounted to 20.3 ratio and the “Signal/Noise Ratio at 6.4 IU/mL” value worked out at 33.7 ratio. In addition, the “Signal/Noise Ratio at 100 IU/mL” value in assay [3] was found to be 92.8 ratio.
